The target of the assay is T1, hCB2 wt (Homo sapiens, UniProt P34972).
T1 construct: gene CNR2; full-length (63Q), N-terminal HA tag and three thrombin cleavage sites (HA-3TCS), pcDNA5/FRT, expressed in HEK Flp-in-293 cells
In words: receptor internalisation, surface HA immunocytochemistry (Method A). Format: cell-based. The note with it: read-out: Method A: Internalisation (3 h) / CB2 wt / pEC50 (± SEM) (converted). The source says:
receptor internalisation, surface HA immunocytochemistry (Method A) on hCB2 wt

The chains behind the UniProt entries cited, without tags or fusion partners.
UniProt P34972, whole entry: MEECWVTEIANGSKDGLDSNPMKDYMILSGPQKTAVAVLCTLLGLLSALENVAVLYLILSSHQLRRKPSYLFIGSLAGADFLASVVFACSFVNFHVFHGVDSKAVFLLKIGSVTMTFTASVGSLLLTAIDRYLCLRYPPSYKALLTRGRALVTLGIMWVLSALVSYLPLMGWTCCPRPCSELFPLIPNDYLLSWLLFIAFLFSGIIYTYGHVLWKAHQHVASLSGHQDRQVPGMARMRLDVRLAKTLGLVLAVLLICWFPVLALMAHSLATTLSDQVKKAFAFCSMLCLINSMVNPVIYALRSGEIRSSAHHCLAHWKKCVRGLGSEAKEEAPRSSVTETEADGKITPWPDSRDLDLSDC

We go through one molecule from PMC12748375, “Insights into cannabinoid receptor 2 (CB2) anterograde trafficking and pharmacological chaperoning” (Cellular and Molecular Life Sciences: CMLS, 2025).

Consider `CCCCC/C=C\C/C=C\C/C=C\C/C=C\CCCC(=O)NCCO` [AEA], for which the EC50 was 447 nM.
